Measured affinities in a library of Ab-14 heavy chain variants

Values reported by Engelhart et al. 2022, doi:10.1038/s41597-022-01779-4 (FLAb copy).

Target: peptide PDVDLGDISGINAS, taken from heptad repeat 2 (HR2) of SARS-CoV-2 spike.

Each scFv is VH, a (GGGGS)3 linker, VL, as in the parent Ab-14, and differs from it in the CDRs of the heavy chain only.
VH: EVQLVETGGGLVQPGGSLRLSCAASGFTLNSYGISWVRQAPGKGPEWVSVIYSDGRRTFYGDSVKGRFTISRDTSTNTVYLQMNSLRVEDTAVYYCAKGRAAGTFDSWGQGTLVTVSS
VL: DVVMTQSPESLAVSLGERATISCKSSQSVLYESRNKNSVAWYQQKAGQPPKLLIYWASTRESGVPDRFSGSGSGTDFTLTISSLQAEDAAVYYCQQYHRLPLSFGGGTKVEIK

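The parent was found by panning a naive human phage display library on the peptide. Library AAYL49 holds single substitutions and randomly drawn double and triple substitutions in the CDRs. AlphaSeq pools MATa yeast showing the antibodies with MATalpha yeast showing the peptide. The frequency of each diploid, read from paired DNA barcodes, reflects how well the two displayed proteins bind. A regression on co-assayed BCL2-family reference pairs converts the normalised counts of each replicate to an apparent Kd. Mating was done three times.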

Variants are written as CDR1, CDR2 and CDR3 of the heavy chain (limits as in the source). Parent: GFTLNSYGIS, VIYSDGRRTFYGDSVK, GRAAGTFDS.
Affinities are written as log10 Kd with Kd in nM; a lower number is a better binder.
Where no diploid with the target was found in that replicate, the entry reads "nd": below detection, most likely a poor binder, though not proof of it.
Three control strains display no target. For library AAYL49, 15% of the pairings with them gave a signal, with a median of 4.06 and one signal in twenty below 2.83, so weak values seen in few replicates may be background. Also given: how often the same scFv was detected with the empty control strains, with their mean in brackets.

CDR-H1	CDR-H2	CDR-H3	log10 Kd (nM) by replicate	empty controls
GFTLNHYGIS	VVYSDGRRTFYGDSVK	GRAAGTFDS	2.09 / 2.19 / 2.09	1/9 (4.20)
GFTLNKYGIS	VIYFDGRYTFYGDSVK	GRAAGTFDS	nd / nd / nd	0/9
QFTLNSYGIS	VIYSDGRRTFYGDSVK	GLAAGTFDS	nd / nd / 3.27	0/9
GFTLPSYGIS	VIYSDGRRTFGGDSVS	GRAAGTFDS	nd / nd / nd	0/9
GFTLNSAGIS	VIYSDGRRTFYGDSVK	GKYAGTFDS	nd / nd / nd	0/9
GFTLISYGIS	VIYCDGRRTFYGDLVK	GRAAGTFDS	nd / nd / nd	0/9
GFTLNSYCIS	VIYSDGRRTFYTDSVK	GRAARTFDS	nd / nd / nd	0/9
GFHLNSYGIS	VIYSDGRRTFYGDSVK	GRAAGTFDG	3.76 / 2.06 / 3.21	1/9 (2.77)
GFTMESYGIS	VIYSDGRRTFYGDSVN	GRAAGTFDS	3.04 / 2.68 / 2.16	2/9 (3.47)
GFTHNSYGIS	VIYSDGRRTFYGDGVK	GRAATTFDS	5.40 / nd / nd	2/9 (2.58)
GFTLNRYGIS	VIYSDGRRTFYGDSVK	GRAAKTFDS	nd / nd / nd	0/9
GFFLNSYGRS	VIYSDGRRTFYGDSVK	GRAAGTCDS	nd / 3.55 / nd	3/9 (3.63)
GFTLNSYGIS	DIDSDGRRTFYGDSVK	GRAAGTSDS	nd / 4.14 / 5.22	2/9 (3.86)
GPTLNSYDIS	VIYSDGKRTFYGDSVK	GRAAGTFDS	3.40 / 3.09 / 3.28	5/9 (4.55)
GFTLNSYGIS	QIYKDGRRTFYGDSVK	GRAAGTFDS	4.32 / 3.61 / 3.93	3/9 (3.84)
GFTLNSYGIS	TIYSDGRRTPYGDSVK	GRAAGTKDS	nd / nd / nd	2/9 (3.28)
GFTLNSYGIS	VIYSSGRRTFYGDSVK	GRAGMTFDS	5.81 / nd / nd	2/9 (3.95)
GFTLNSYGIS	VIYEFGRRTFYGDSVK	GRCAGTFDS	nd / nd / nd	0/9
GFTLNSMIIS	VIYSDGRRTFYGDSVP	GRAAGTFDS	3.79 / 3.65 / nd	6/9 (4.70)
GITLNSYGIS	VIYSDGRRTFYGNSVL	GRAAGTFDS	2.48 / 2.25 / 3.22	0/9
GFTLNSYGIS	VIYSDGRRTFYGISVK	GRAAGTFDS	nd / nd / nd	0/9
GFTLNSYGIS	VIYSDLSRTFYGDSVK	GWAAGTFDS	nd / nd / nd	2/9 (4.05)
GFTLNSYGIS	VIYSDGRRTFYGDLVK	MRAAGTFDS	nd / 3.38 / 5.91	2/9 (4.26)
GFTLNSYGIS	VIYSDGRRTFYGDSVC	GNAAGTCDS	nd / nd / 3.63	2/9 (3.81)
GFTLESYGIS	VIYSDGRRTVYGDSVK	GRDAGTFDS	0.64 / 0.85 / 0.76	3/9 (4.05)
GFTLNSYGIS	SIYSDGRKTFYGDSVK	GRAAGTFDS	nd / 5.18 / nd	5/9 (3.92)
GFTLNSYGRS	VWYGDGRRTFYGDSVK	GRAAGTFDS	nd / nd / nd	3/9 (4.65)
GFTLNSYGIS	VIYSDGRRTFYGDSVK	GRAACTKDS	4.58 / nd / nd	0/9
EFTLNSYGYS	VIYSDGRRTFYGDSVK	GWAAGTFDS	nd / 3.07 / nd	1/9 (4.45)
GFTLNSYGIS	VIYSDGRFTFYGDSVK	GDGAGTFDS	2.49 / nd / nd	0/9
GFTLCSYGIS	VIYSDNRRTFYGDSVK	GRAAGTTDS	nd / nd / nd	1/9 (3.21)
GFTLNSFGIS	VIYSDGRRTFYGDSTK	TRAAGTFDS	nd / nd / nd	0/9
GFTLNAYGIS	VIYSDGRRTFYGDAVK	GRADGTFDS	0.83 / 0.74 / 1.14	0/9
GFTLNSYGIS	GIYSDGRRTFYGDSVK	GRAAGTFDS	4.81 / 5.55 / 6.54	5/9 (4.38)
GFTLNSIGIS	VIYDDGRRTFYGDSVK	GRAAATFDS	nd / nd / nd	0/9
GFTLNSYGIS	VPYSDGRRTCVGDSVK	GRAAGTFDS	4.85 / 3.78 / nd	0/9
GFTLNRYGIS	VIYSDVRRTFYGKSVK	GRAAGTFDS	nd / nd / nd	0/9
GFTLHSYGIS	VIYSDPRRTFYGDSVK	GRAAGTFDS	nd / 2.90 / nd	1/9 (2.71)
GTTLNSYWIS	VIYSDGRRTFYGDSVK	GRAAGTQDS	nd / 2.70 / nd	5/9 (4.08)
GFTLNSYGIS	VIYSDGQRTFYGNSVK	GRAAGTFRS	1.48 / 1.58 / 1.53	4/9 (4.45)
GVTWNSYGIS	VIYSDKRRTFYGDSVK	GRAAGTFDS	nd / nd / nd	1/9 (3.16)
GFTLNSYGIS	VIQSDGRRTFKGDSVK	GRAAGTFDS	nd / nd / nd	0/9
GFTLNSYGIS	VPYSDGRRTFYGDSVL	GRAAGTFDS	5.91 / nd / 4.49	3/9 (3.93)
GFTLNSYGIS	PIYSDSRRTFYGDSVK	KRAAGTFDS	6.03 / 4.07 / 4.68	3/9 (3.93)
GFTLNSYGIS	VIYSDGDRTFYIDSVK	GRAAGTFDS	0.68 / 0.87 / 1.23	0/9
GFTLNSYGIR	VIYSDGRRTFYGDSVK	GRAAGTFDS	nd / nd / nd	1/9 (4.65)
GFTLNSYGIT	VIYSDVRRTQYGDSVK	GRAAGTFDS	nd / nd / nd	0/9
GFTQNSYGIS	VIYCDGRRTFYGDSCK	GRAAGTFDS	nd / nd / nd	0/9
GFTLNSDGIS	LIYSDGRRTFYGDSVK	GRAAGTFDS	nd / nd / nd	1/9 (3.55)
GFTLNSRGIS	VIYSDGRRTFYGDSVK	GRAAKTFDE	nd / nd / nd	0/9

Excerpt, the first 6 entries:

CDR-H1	CDR-H2	CDR-H3	log10 Kd (nM) by replicate	empty controls
GFTLNHYGIS	VVYSDGRRTFYGDSVK	GRAAGTFDS	2.09 / 2.19 / 2.09	1/9 (4.20)
GFTLNKYGIS	VIYFDGRYTFYGDSVK	GRAAGTFDS	nd / nd / nd	0/9
QFTLNSYGIS	VIYSDGRRTFYGDSVK	GLAAGTFDS	nd / nd / 3.27	0/9
GFTLPSYGIS	VIYSDGRRTFGGDSVS	GRAAGTFDS	nd / nd / nd	0/9
GFTLNSAGIS	VIYSDGRRTFYGDSVK	GKYAGTFDS	nd / nd / nd	0/9
GFTLISYGIS	VIYCDGRRTFYGDLVK	GRAAGTFDS	nd / nd / nd	0/9